Experimental data as given in ChEMBL document CHEMBL3352167 (Bioorg Med Chem, 2015).

Chains of the proteins cited; added tags and fusions are not shown.
UniProt Q61327, whole entry: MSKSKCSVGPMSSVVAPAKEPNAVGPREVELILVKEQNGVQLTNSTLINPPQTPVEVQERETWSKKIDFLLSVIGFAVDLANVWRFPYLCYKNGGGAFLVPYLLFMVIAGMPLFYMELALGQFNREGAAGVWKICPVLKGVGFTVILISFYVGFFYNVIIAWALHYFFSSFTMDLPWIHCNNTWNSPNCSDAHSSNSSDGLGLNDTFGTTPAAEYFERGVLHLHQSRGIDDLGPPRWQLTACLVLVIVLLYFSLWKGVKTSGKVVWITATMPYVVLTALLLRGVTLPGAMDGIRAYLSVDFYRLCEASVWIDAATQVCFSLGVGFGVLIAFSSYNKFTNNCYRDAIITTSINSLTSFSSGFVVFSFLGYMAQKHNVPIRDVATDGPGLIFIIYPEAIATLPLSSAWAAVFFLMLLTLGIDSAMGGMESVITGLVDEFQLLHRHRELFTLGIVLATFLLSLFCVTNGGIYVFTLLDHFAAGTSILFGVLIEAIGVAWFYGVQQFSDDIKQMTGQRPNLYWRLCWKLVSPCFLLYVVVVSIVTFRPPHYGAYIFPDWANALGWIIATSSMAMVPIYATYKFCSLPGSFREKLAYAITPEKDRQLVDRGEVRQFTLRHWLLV

Biological target: Sodium-dependent dopamine transporter (Mus musculus, UniProt Q61327)
Assay: Displacement of [3H]RTI-121 from mouse DAT in striatal membranes
Type: cell membranes, Striatum, Membrane

- Ki: 8.2 µM
Structure (SMILES): Clc1ccc(CCN2CCN(CCCc3ccccc3)CC2)cc1Cl
